One substance from patent US11065343B2, “Compound bearing beta-galactoside-introduced self-immolative linker” (IntoCell Inc., priority 2016, dated 2021) can be followed below.

The subject of this test is SKBR-3 cancer cell line. Briefly: In vitro cytotoxicity of antibody-drug conjugates (MTT). The format is cell-based. To be noted: SKBR-3, 96 hours. How it is done: SKBR-3 cancer cell line was seeding to a 96-well plate in 2,000 to 8,000 per well and was cultured for 24 hours. Ab-17 and Ab-18 obtained in Test Example 6 were treated with a serial dilution in 1/4 from 50 nM to 0.0008 nM, and control drug T-DM1 (Roche CAS No. 1018448-65-1) was treated with a serial dilution in 1/4 from 50 nM to 0.0008 nM. Live cells after 96 hours were quantified by dissolving MTT dye in a buffer solution to be 5 mg/mL and then adding it in 1/10 to each well of the plate. Formazan formed by a reduction of MTT dye with mitochondria oxidoreductase in the cell was dissolved in DMSO, and a quantification was conducted by measuring an absorbance at 550 nm, and the results were shown in Table 3 below.

The IC50 is the concentration that inhibits the measured activity by half. Read a high IC50 as weaker potency in that assay.

TDM-1: the half-inhibitory concentration (IC50) was 0.021 nM.
